Assay results taken from PubChem BioAssay AID493193 (Broad Institute, 2011).
This is a selection; strong and weak results do not stand in their true shares. Activity calls are given as the source filed them. No rule for the calls is given here.

Test: PubChem AID 493193
Conditions: U2OS HRE-luciferase reporter, luminescence, HIF pathway activation; at 38 µM (top of the series)

For O=c1[nH]c2ccccc2n1C1CCN(Cc2ccc(O)c3ncccc23)CC1, the activation was inactive: -0.083%.
